Substrate in this series: NC(=O)c1ccc[n+]([C@@H]2O[C@H](COP(=O)([O-])OP(=O)(O)OC[C@H]3O[C@@H](n4cnc5c(N)ncnc54)[C@H](O)[C@@H]3O)[C@@H](O)[C@H]2O)c1
Description: purified protein, by the assay type. As to conditions: other: PARP4 ART.

B1: PARP4 (Homo sapiens) (protein)
chain: MVMGIFANCIFCLKVKYLPQQQKKKLQTDIKENGGKFSFSLNPQCTHIILDNADVLSQYQLNSIQKNHVHIANPDFIWKSIREKRLLDVKNYDPYKPLDITPPPDQKASSSEVKTEGLCPDSATEEEDTVELTEFGMQNVEIPHLPQDFEVAKYNTLEKVGMEGGQEAVVVELQCSRDSRDCPFLISSHFLLDDGMETRRQFAIKKTSEDASEYFENYIEELKKQGFLLREHFTPEATQLASEQLQALLLEEVMNSSTLSQEVSDLVEMIWAEALGHLEHMLLKPVNRISLNDVSKAEGILLLVKAALKNGETAEQLQKMMTEFYRLIPHKGTMPKEVNLGLLAKKADLCQLIRDMVNVCETNLSKPNPPSLAKYRALRCKIEHVEQNTEEFLRVRKEVLQNHHSKSPVDVLQIFRVGRVNETTEFLSKLGNVRPLLHGSPVQNIVGILCRGLLLPKVVEDRGVQRTDVGNLGSGIYFSDSLSTSIKYSHPGETDGTRLLLICDVALGKCMDLHEKDFSLTEAPPGYDSVHGVSQTASVTTDFEDDEFVVYKTNQVKMKYIIKFSMPGDQIKDFHPSDHTELEEYRPEFSNFSKVEDYQLPDAKTSSSTKAGLQDASGNLVPLEDVHIKGRIIDTVAQVIVFQTYTNKSHVPIEAKYIFPLDDKAAVCGFEAFINGKHIVGEIKEKEEAQQEYLEAVTQGHGAYLMSQDAPDVFTVSVGNLPPKAKVLIKITYITELSILGTVGVFFMPATVAPWQQDKALNENLQDTVEKICIKEIGTKQSFSLTMSIEMPYVIEFIFSDTHELKQKRTDCKAVISTMEGSSLDSSGFSLHIGLSAAYLPRMWVEKHPEKESEACMLVFQPDLDVDLPDLASESEVIICLDCSSSMEGVTFLQAKQIALHALSLVGEKQKVNIIQFGTGYKELFSYPKHITSNTMAAEFIMSATPTMGNTDFWKTLRYLSLLYPARGSRNILLVSDGHLQDESLTLQLVKRSRPHTRLFACGIGSTANRHVLRILSQCGAGVFEYFNAKSKHSWRKQIEDQMTRLCSPSCHSVSVKWQQLNPDVPEALQAPAQVPSLFLNDRLLVYGFIPHCTQATLCALIQEKEFRTMVSTTELQKTTGTMIHKLAARALIRDYEDGILHENETSHEMKKQTLKSLIIKLSKENSLITQFTSFVAVEKRDENESPFPDIPKVSELIAKEDVDFLPYMSWQGEPQEAVRNQSLLASSEWPELRLSKRKHRKIPFSKRKMELSQPEVSEDFEEDGLGVLPAFTSNLERGGVEKLLDLSWTESCKPTATEPLFKKVSPWETSTSSFFPILAPAVGSYLPPTARAHSPASLSFASYRQVASFGSAAPPRQFDASQFSQGPVPGTCADWIPQSASCPTGPPQNPPSSPYCGIVFSGSSLSSAQSAPLQHPGGFTTRPSAGTFPELDSPQLHFSLPTDPDPIRGFGSYHPSASSPFHFQPSAASLTANLRLPMASALPEALCSQSRTTPVDLCLLEESVGSLEGSRCPVFAFQSSDTESDELSEVLQDSCFLQIKCDTKDDSILCFLEVKEEDEIVCIQHWQDAVPWTELLSLQTEDGFWKLTPELGLILNLNTNGLHSFLKQKGIQSLGVKGRECLLDLIATMLVLQFIRTRLEKEGIVFKSLMKMDDASISRNIPWAFEAIKQASEWVRRTEGQYPSICPRLELGNDWDSATKQLLGLQPISTVSPLHRVLHYSQG
Consider B1, for which the Km is 92 ± 17 µM.

What is called Km is the substrate concentration at which the rate is half of its maximum.

The record behind these values is publication PMC5934274.
